The entries are a selection whose mix differs from that of the whole data set. Some results for these compounds are left out of this collection, so the calls shown say nothing about other tests. Calls of active or inactive are those of the source.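 How the source made its calls: active means GFP response versus DMSO above a set limit, roughly screen mean plus 3 SD (cut at about 180% in these data); inconclusive means fewer than 70 cells counted for a yeast strain; inactive means the rest.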
Assay: TOR pathway GLN3 branch reporter MEP2-GFP changes – S. cerevisiae, multiplex flow cytometry, MLPCN library, primary screen (AID 2016);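 further: median GFP fluorescence of the barcode-gated MEP2-GFP cells per well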
Details: S. cerevisiae MEP2-GFP strain, 3 h, at 10 µM, stronger effect = higher value, 100% = DMSO control level

| SMILES | GFP response vs DMSO |
| --- | --- |
| CN(C)c1ccc(C(=O)NCC2(N(C)C)CCCCC2)cc1 | inactive: 111% |
| CN(C)C1CCCC1OC(=O)C(O)(c1ccccc1)c1ccccc1 (centres undefined) | inactive: 98.9% |
| Cc1ccccc1C(=O)NCC1(N2CCCCC2)CCCCC1 | inactive: 95.2% |
| O=C(NCC1(N2CCCCC2)CCCCC1)c1cccc(Br)c1 | inactive: 107% |
| CCN1CCCC(OC(=O)C2(O)c3ccccc3C=Cc3ccccc32)C1 (centres undefined) | inactive: 94.7% |
| Cc1cc(C(=O)NCC2(N3CCCCC3)CCCCC2)ccc1[N+](=O)[O-] | active: 254% [may fluoresce violet] |
| COc1ccc(C(=O)NCC2(N(C)C)CCCCC2)cc1 | inactive: 105% |
| O=C(NCC1(N2CCCCC2)CCCCC1)c1cc(F)c(F)cc1Cl | inactive: 101% |
| C=CCN1CCN(CCOC(=O)C(O)(c2ccccc2)c2ccccc2)CC1 | inactive: 100% |
| CN1[C@@H]2CC[C@H]1CC(OC(=O)C(O)(c1ccccc1)c1ccccc1)C2 (some centres undefined) | inactive: 110% |
| O=C(NCC1(N2CCCCC2)CCCCC1)c1cc([N+](=O)[O-])ccc1Cl | inactive: 110% |
| Cc1ccc(C(=O)NCC2(N3CCCCC3)CCCCC2)cc1 | inactive: 108% |
| CC(C)N1C(=O)CC2(CCN(CCOC(=O)C(O)(c3ccccc3)c3ccccc3)CC2)C1=O | inactive: 96.2% |
| COc1cc(SC)ccc1C(=O)NCC1(N(C)C)CCCCC1 | inactive: 100% |
| CCN(CC)CC(C)C(C)OC(=O)C(O)(c1ccccc1)c1ccccc1 (centres undefined) | inactive: 102% |
| O=C(OC1CN2CCC1CC2)C(CO)(c1ccccc1)c1ccccc1 (centres undefined) | inactive: 106% |
| CN(C)c1cccc(C(=O)NCC2(N(C)C)CCCCC2)c1 | inactive: 101% |
| CC(C)Oc1ccc(C(=O)NCC2(N(C)C)CCCCC2)cc1 | inactive: 103% |
| COc1ccc(Br)c(C(=O)NCC2(N3CCCCC3)CCCCC2)c1 | inactive: 99.6% |
| COc1cc(C(=O)NCC2(N(C)C)CCCCC2)c([N+](=O)[O-])cc1OC | inactive: 92.6% |
| CN(C)C1(CNC(=O)c2ccc(Br)cc2)CCCCC1 | inactive: 94.3% |
| O=C(NCC1(N2CCCCC2)CCCCC1)c1cccc(Cl)c1 | inactive: 106% |
| COc1ccc(Cl)cc1C(=O)NCC1(N(C)C)CCCCC1 | inactive: 104% |
| COc1cccc(C(=O)NCC2(N3CCCCC3)CCCCC2)c1 | inactive: 93.3% |

Reference: PubChem BioAssay AID2016 (NMMLSC, 2009)
